Measurements reported in ChEMBL document CHEMBL1687942, “Benzimidazole inhibitors induce a DFG-out conformation of never in mitosis gene A-related kinase 2 (Nek2) without binding to the back pocket and reveal a nonlinear structure-activity relationship” (J Med Chem, 2011).
Activity calls are given as the source filed them. The calls are words filed in the database; no cut-off is given here.

Columns and labels:
[1] = tested on: Tyrosine-protein kinase Lck (Mus musculus); test: Inhibition of mouse LCK at 2 uM
[2] = target: T1, Serine/threonine-protein kinase Nek2 (Homo sapiens, UniProt P51955)
T1 sequence (P51955 whole entry): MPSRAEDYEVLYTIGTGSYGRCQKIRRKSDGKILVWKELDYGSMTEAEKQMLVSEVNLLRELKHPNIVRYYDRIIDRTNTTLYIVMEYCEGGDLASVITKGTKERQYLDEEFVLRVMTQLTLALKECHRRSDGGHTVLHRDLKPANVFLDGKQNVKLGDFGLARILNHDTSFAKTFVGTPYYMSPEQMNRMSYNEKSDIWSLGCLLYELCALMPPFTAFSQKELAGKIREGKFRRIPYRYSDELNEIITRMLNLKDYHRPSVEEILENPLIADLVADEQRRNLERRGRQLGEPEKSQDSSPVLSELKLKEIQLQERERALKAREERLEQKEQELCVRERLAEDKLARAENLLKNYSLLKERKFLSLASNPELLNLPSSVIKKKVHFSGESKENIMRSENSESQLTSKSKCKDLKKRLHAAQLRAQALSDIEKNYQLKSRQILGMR

| Structure (SMILES) | inhibition [1] | IC50 [2] [nM] |
| --- | --- | --- |
| CC(Oc1cc(-n2cnc3cc(OC4CCN(C)CC4)ccc32)ccc1C(N)=O)c1ccccc1C(F)(F)F (racemic) | Active | – |
| CC(Oc1cc(-n2cnc3ccc(OC4CCN(C)CC4)cc32)sc1C(N)=O)c1ccccc1C(F)(F)F (racemic) | – | 160 |
